Drawing on ChEMBL document CHEMBL1139387, “Fragment-based discovery of the pyrazol-4-yl urea (AT9283), a multitargeted kinase inhibitor with potent aurora kinase activity” (J Med Chem, 2009), this text covers IC50 for two molecules.

This experiment concerns the target T1, Aurora kinase A (Homo sapiens, UniProt O14965).
T1 sequence (O14965 whole entry): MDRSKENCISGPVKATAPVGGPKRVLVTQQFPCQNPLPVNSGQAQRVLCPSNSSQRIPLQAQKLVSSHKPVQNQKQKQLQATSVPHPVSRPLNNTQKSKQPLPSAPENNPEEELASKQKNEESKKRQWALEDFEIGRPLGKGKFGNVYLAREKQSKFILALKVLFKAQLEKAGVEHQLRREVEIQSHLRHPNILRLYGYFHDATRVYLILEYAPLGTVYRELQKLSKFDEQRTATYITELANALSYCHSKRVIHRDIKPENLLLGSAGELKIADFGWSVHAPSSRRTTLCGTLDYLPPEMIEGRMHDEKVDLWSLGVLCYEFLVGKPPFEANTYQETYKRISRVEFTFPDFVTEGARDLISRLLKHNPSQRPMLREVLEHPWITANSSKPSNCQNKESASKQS

pIC50: −log10 of the molar value.

What is called pIC50 is −log10 of the IC50, conventionally taken in molar units. Higher therefore signals a low IC50. `O=C(Nc1c[nH]nc1-c1nc2ccccc2[nH]1)c1ccccc1` had a pIC50 of 8.23. The molecule `O=C(Nc1c[nH]nc1-c1nc2ccc(CN3CCOCC3)cc2[nH]1)c1ccc(F)cc1` gave a pIC50 of 8.00.
